# Test results published in ChEMBL document CHEMBL4840312, “Discovery of memantyl urea derivatives as potent soluble epoxide hydrolase inhibitors against lipopolysaccharide-induced sepsis” (Eur J Med Chem, 2021).
# Experiments:
# [1] = Microsomal stability in human liver microsomes assessed as half life in presence of NADPH by LC-MS/MS analysis; format: ADME, Microsome
# [2] = Plasma protein binding in mouse measured for 5 hrs by LC-MS/MS analysis; format: ADME, cell-free
smiles,measurement,setting,value
CC12CC3CC(C)(C1)CC(NC(=O)Nc1ccc(C(=O)N4CCCCC4)cc1)(C3)C2,t1/2,[1],25.37 min
same,PPB,[2],98.6%
